## Apparent affinities of Ab-14 variants for a coronavirus HR2 peptide

Target peptide (SARS-CoV-2 spike, HR2 region): PDVDLGDISGINAS

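Phage display of a naive human antibody library on the peptide gave the parent. Designed CDR sequences, proposed from the first random library and measured here. Their group label is 14L_GP_Gibbs (GP: Gaussian process model; Gibbs: Gibbs sampling; a sequence that several methods proposed may carry one label only). Affinity was read by AlphaSeq, a pooled yeast mating assay with surface-displayed partners. Binding brings cells together so that they mate, and sequencing counts the barcode pairs among the diploids. A regression on co-assayed BCL2-family reference pairs converts the normalised counts of each replicate to an apparent Kd. Mating was done six times.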

Ab-14 is the parent antibody, in scFv form: VH, then a (GGGGS)3 linker, then VL. The heavy chain is unchanged in all variants.
VH: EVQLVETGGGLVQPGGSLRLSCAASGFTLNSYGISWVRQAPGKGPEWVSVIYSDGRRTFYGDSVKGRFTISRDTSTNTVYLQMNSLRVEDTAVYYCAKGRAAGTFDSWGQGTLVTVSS
VL: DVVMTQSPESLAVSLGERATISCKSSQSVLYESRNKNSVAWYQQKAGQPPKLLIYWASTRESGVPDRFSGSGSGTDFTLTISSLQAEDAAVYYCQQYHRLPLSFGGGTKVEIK

Substitutions are numbered in sequence along the VL above, starting at 1 (not Kabat).
Scale: log10 of Kd in nM, estimated from mating counts; low values are strong binders.
An entry "nd" has no value in the source: the pair was not observed among the diploids in that replicate. This suggests poor binding but is not conclusive.
Three control strains display no target. For all light chain designs, 4% of the pairings with them gave a signal, with a median of 2.64 and one signal in twenty below 1.59, so weak values seen in few replicates may be background. The control count says in how many pairings with the empty strains this scFv gave a signal, with their mean in brackets.
The authors' rule: three or more of the six replicates give a measured affinity, fewer mean a poor binder.
The parent sequence was in this pool as ten entries: three were never detected, three once, and four in most replicates, with averages from 0.34 to 2.37.
Values of this round are not directly comparable with the first-round values of the same sequences.

changes | log10 Kd, replicates | empty controls
S25V+S26Q+Q27M+V29W+Y31M+E32Q+N35M+S38Q+W56H+T59M | nd / nd / nd / nd / nd / 1.72 | 0/18
S25L+S26Q+L30D+S38A+W56N+S62Q+R99Q | -0.13 / -0.01 / -0.03 / -0.09 / 0.00 / -0.04 | 0/18
K24H+S25C+L30W+Y31Q+W56N+T59Q+S62R | 1.98 / 1.43 / 1.39 / 1.78 / 1.50 / 1.70 | 1/18 (4.79)
S25L+S26M+V29A+Y31L+K36V+S38N+W56Q+T59Q+S62L+Q96D | 0.17 / 0.08 / 0.16 / -0.04 / 0.34 / 0.40 | 1/18 (4.47)
S25L+S26L+Y31L+K36D+W56N+S62L | -0.28 / -0.22 / -0.53 / -0.51 / -0.46 / -0.27 | 1/18 (2.81)
K24H+S25L+V29Q+L30D+W56N+T59Q+E61L+S62H | 0.34 / -0.33 / -0.44 / -0.27 / -0.48 / -0.02 | 1/18 (3.05)
S25V+S26E+S28L+V29H+S38A+W56Q+A57G | 0.69 / 0.42 / 0.46 / -0.07 / 0.66 / 0.85 | 0/18
S25V+S26M+V29K+L30E+N35Q+W56N+T59Q+S62L | 0.35 / 0.55 / 0.43 / 0.32 / 0.51 / 0.50 | 2/18 (2.52)
S25A+S26R+V29N+S33D+K36Q+W56S+T59Q+E61L+S62T | 0.30 / 0.28 / 0.26 / 0.05 / 0.31 / 0.35 | 1/18 (2.78)
S25W+S26F+Y31L+R34M+N35L+K36V+W56N+T59Q+S62D | 0.85 / 0.87 / 0.81 / 0.97 / 0.35 / 1.06 | 0/18
S25Q+L30G+E32G+N37W+W56E | 0.78 / 0.59 / 0.54 / 0.45 / 0.51 / 0.53 | 1/18 (2.81)
S25L+L30M+E32W+S33M+W56N | -0.13 / -0.01 / -0.20 / -0.22 / -0.06 / 0.06 | 4/18 (2.90)
S25V+Q27N+L30D+Y31G+S33D+S38A+W56D | -0.19 / -0.27 / -0.34 / -0.26 / -0.32 / -0.18 | 0/18
S25L+V29K+L30G+K36P+W56N+S62R | -0.08 / -0.19 / -0.36 / -0.40 / -0.35 / -0.09 | 1/18 (3.34)
S25L+S26P+V29Y+L30N+S38N+W56S+T59C | 0.31 / 0.47 / 0.15 / 0.26 / 0.71 / 0.74 | 2/18 (1.99)
S25L+S26D+V29D+L30Q+Y31G+S38A+W56Q+S62I | -0.12 / -0.20 / -0.12 / -0.07 / -0.19 / 0.04 | 3/18 (4.03)
S25L+V29A+L30P+S33D+N35C+K36F+W56H+T59Q | 0.89 / 0.95 / 1.37 / 0.97 / 1.03 / 1.21 | 2/18 (2.22)
S25L+V29Q+L30C+S33E+S38N+W56Q+T59D+E61M | 0.17 / 0.09 / 0.06 / 0.10 / 0.14 / 0.12 | 2/18 (3.94)
S25W+Q27I+V29D+Y31Q+E32G+S33D+W56N+T59C+S62Q | 0.19 / 0.14 / 0.11 / -0.07 / 0.04 / 0.10 | 0/18
S25A+L30G+E32G+S33E+N35M+K36S+W56E | 0.41 / 0.33 / 0.15 / -0.01 / 0.39 / 0.37 | 1/18 (2.77)
S25L+V29D+K36I+W56N+T59Q+E61C | -0.17 / 0.06 / -0.23 / -0.30 / -0.26 / -0.01 | 2/18 (2.52)
S25V+S26H+V29W+N35Q+K36I+W56N+T59Q+E61C+S62D | 0.63 / 0.46 / 0.53 / -0.10 / 0.23 / 0.06 | 0/18
S25L+S28Q+V29D+L30W+K36C+W56Q+S62Q | 0.84 / 1.15 / 0.78 / 1.08 / 1.05 / 0.61 | 0/18
S25L+S26Q+S28Q+V29D+L30E+W56N+E61W+S62Q | 0.10 / -0.16 / -0.22 / -0.42 / -0.35 / -0.07 | 0/18
S25M+Q27I+V29E+S33D+K36Q+W56S+T59Q+E61L+S62E | 0.85 / 0.42 / 0.43 / 0.40 / 0.52 / 0.99 | 0/18
S25V+S26P+V29M+K36A+S38N+W56A+T59D | -0.18 / -0.19 / -0.79 / -0.55 / -0.10 / -0.21 | 0/18
S25W+L30P+Y31M+E32G+S33D+W56S+S58H+T59K | 1.25 / 1.41 / 1.36 / 0.70 / 1.46 / 1.62 | 0/18
S25L+S26P+S28W+V29Q+S38N+W56N+S62M | 0.55 / 0.12 / 0.10 / 0.17 / -0.08 / 0.21 | 0/18
S25V+S26D+Q27I+V29Q+Y31L+W56N+E61C | 0.16 / 0.16 / 0.37 / 0.00 / -0.01 / 0.22 | 0/18
S25L+S26P+V29E+L30P+N35C+K36F+W56N+E61C | 0.37 / 0.12 / 0.40 / 0.31 / 0.33 / 0.13 | 1/18 (2.51)
Q27G+S28Q+L30C+E32G+S33D+W56N+S62Q | 0.74 / 0.49 / 0.73 / 0.50 / 0.56 / 1.08 | 2/18 (3.27)
S25L+S26E+Q27G+V29N+K36G+W56N+E61Y | -0.49 / -0.42 / -0.55 / -0.71 / -0.66 / -0.34 | 1/18 (2.99)
S25F+S26F+V29E+Y31D+S33M+K36D+W56S+E61L | 0.88 / 0.10 / 0.29 / 0.15 / 1.09 / 1.25 | 0/18
S25V+S26D+S28E+V29W+L30D+E32G+W56N+S62R | nd / 1.11 / 1.94 / 2.35 / 1.60 / 1.47 | 0/18

Picked from the list: the 4 lowest averages where every replicate gave a value.

changes	log10 Kd, replicates	empty controls
S25L+S26E+Q27G+V29N+K36G+W56N+E61Y	-0.49 / -0.42 / -0.55 / -0.71 / -0.66 / -0.34	1/18 (2.99)
S25L+S26L+Y31L+K36D+W56N+S62L	-0.28 / -0.22 / -0.53 / -0.51 / -0.46 / -0.27	1/18 (2.81)
S25V+S26P+V29M+K36A+S38N+W56A+T59D	-0.18 / -0.19 / -0.79 / -0.55 / -0.10 / -0.21	0/18
S25V+Q27N+L30D+Y31G+S33D+S38A+W56D	-0.19 / -0.27 / -0.34 / -0.26 / -0.32 / -0.18	0/18

The measurements come from Li et al. 2023 (doi:10.1038/s41467-023-39022-2) through the FLAb antibody collection.